Read-outs that look alike come from different tables or passages of the source.
How the values were obtained:
SW1900 cells (KRAS G12D) = test: Cell-based pERK HTRF assay in SW1900 cells (Biological Example 5); settings: read-out: SW1990 pERK HTRF IC50; SW1990 cells (text: SW1900, KRAS G12D)
Description: (§1) Biological Example 5: Cell-based PERK HTRF assay in AsPC-1, SW1900, HPAC, Capan-2, RKN, H358, HCT116, KP-2, H1573, A549, MKN1, and HT1080 cells
(§2) The inhibition of ERK phosphorylation, as measured using the HTRF Advanced Phospho-ERK 1/2 (Thr202/Tyr204) Detection Assay kit (Perkin Elmer), was used to determine the effectiveness of test compounds in disrupting KRAS-driven protein/effector signaling in cells.
(§3) On day 1, cells were seeded into 96-well plates at 2.5×10^4 cells/well in 100 μL of complete growth media supplemented with 10% fetal bovine serum (FBS) and incubated at 37° C., in the presence of 5% CO2.
(§4) On day 2, cells were treated with compounds diluted in DMSO at 0.25% final DMSO concentration. Compounds were dosed in a 9-point concentration curve with three-fold dilution between concentrations. Cells were incubated in the presence of compound for two hours at 37° C. […]
(§5) Following this incubation period, plates were centrifuged at 500×g for one minute and analyzed on a CLARIOstar plate reader. Data was imported into Microsoft Excel and the signal from the 665 nm channel was divided by the signal from the 620 nm channel. % pERK was calculated as: […]
(§6) Data was imported to the Prism software package (Graphpad) and EC50 values were calculated using the log (inhibitor) vs, response—variable slopc (Four parameters) model.

Sequences of proteins named here, by UniProt entry; tags and fusion partners are left off. Residues count along the entry.
UniProt P01116, 1-169 isoform 2 G12V limits assumed: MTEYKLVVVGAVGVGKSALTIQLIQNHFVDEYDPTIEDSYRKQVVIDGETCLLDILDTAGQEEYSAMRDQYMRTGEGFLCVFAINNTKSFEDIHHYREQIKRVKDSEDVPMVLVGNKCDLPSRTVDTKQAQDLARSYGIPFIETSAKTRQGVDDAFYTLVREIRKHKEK

AsPC-1 cells (KRAS G12D) = test: Cell-based pERK HTRF assay in AsPC-1 cells (Biological Example 5); settings: read-out: AsPC-1 pERK HTRF IC50; AsPC-1 (KRAS G12D) cells
Description: as §1, §2, §3, §4, §5, §6

[1] = tested on: Capan-2 cells (KRAS G12V); test: 3D Cell viability assay in Capan-2 cells (Biological Example 6); settings: read-out: Capan-2 3D cell viability IC50; Capan-2 (KRAS G12V) spheroids, 72 hours
Description: (§7) Biological Example 6: 3D Cell viability assay in AsPC-1, SW1900, HPAC, Capan-2, RKN, H358, HCT116, KP-2, H1573, A549, MKN1, and HT1080 cells
(§8) The inhibition of cellular viability as a result of test compound treatment in a spheroid assay was measured using the CellTiter-Glow 3D Cell Viability Assay (Promega).
(§9) On Day 1, 1000 cells per well were seeded in 150 μL of complete growth media supplemented with 10% fetal bovine serum (FBS) and incubated at 37° C., in the presence of 5% CO2 in 96-well ultra-low attachment microplates (Corning) for 48 hours undisturbed to allow spheroids to form.
(§10) Following spheroid formation, cells were treated with compounds diluted in DMSO at 0.25% final DMSO concentration. Compounds were dosed in a 9-point concentration curve with three-fold dilution between concentrations. […]
(§11) Following this incubation period, the kit-provided CTG reagent was allowed to equilibrate for 30 minutes at room temperature, 150 μL of equilibrated CTG reagent was added to each well, and the plate was sealed before shaking at 250 rpm for 10 minutes at room temperature to lyse the cells, 150 μL of lysate per well was transferred to a 96-well plate and luminescence was read on a CLARIOstar plate reader.
(§12) Data was imported into the Prism software package (Graphpad) and EC50 values were calculated using the log (inhibitor) vs, response—variable slope (Four parameters) model.

H358 cells (KRAS G12C) = test: 3D Cell viability assay in H358 cells (Biological Example 6); settings: read-out: H358 3D cell viability IC50; H358 (KRAS G12C) spheroids, 72 hours
Description: as §7, §8, §9, §10, §11, §12

[2] = molecular target: Avi-KRAS G12V (1-169) GppNHp/RAF1 RBD-3xFLAG (52-151) (Homo sapiens, UniProt P01116, G12V); test: Raf1-KRAS G12V-GppNHP disruption HTRF assay (Biological Example 1); settings: read-out: Raf1-GppNHp-KRAS G12V disruption; KRAS G12V, GppNHp-loaded; class symbols
HPAC cells (KRAS G12D) = test: 3D Cell viability assay in HPAC cells (Biological Example 6); settings: read-out: HPAC 3D cell viability IC50; HPAC (KRAS G12D) spheroids, 72 hours
Description: as §7, §8, §9, §10, §11, §12

SW620 cells (KRAS G12V) = test: Cell-based pERK HTRF assay in SW620 cell (Biological Example 4)

CCN(c1nc(OC[C@@]23CCCN2C[C@H](F)C3)nc2c(F)c(-c3ccc(F)c4sc(N)c(C#N)c34)c(C(F)(F)F)cc12)[C@H]1CCN(C(=O)OC2COC2)C1
IC50 (SW1900 cells (KRAS G12D)): < 100 nM
IC50 (AsPC-1 cells (KRAS G12D)): < 100 nM
IC50 [1]: < 100 nM
IC50 (H358 cells (KRAS G12C)): < 100 nM
IC50 [2]: < 100 nM
IC50 (HPAC cells (KRAS G12D)): 100 to 1000 nM
IC50 (SW620 cells (KRAS G12V); read-out: PERK-SW620, pERK HTRF, class symbols): < 100 nM
IC50 (SW620 cells (KRAS G12V); read-out: pERK-SW620): < 100 nM
